The results in this text go back to ChEMBL document CHEMBL4020831, “Discovery of GDC-0853: A Potent, Selective, and Noncovalent Bruton's Tyrosine Kinase Inhibitor in Early Clinical Development” (J Med Chem, 2018).

The chains behind the UniProt entries cited, without tags or fusion partners. Residues count along the entry.
UniProt Q06187, 2-659 C481S limits assumed: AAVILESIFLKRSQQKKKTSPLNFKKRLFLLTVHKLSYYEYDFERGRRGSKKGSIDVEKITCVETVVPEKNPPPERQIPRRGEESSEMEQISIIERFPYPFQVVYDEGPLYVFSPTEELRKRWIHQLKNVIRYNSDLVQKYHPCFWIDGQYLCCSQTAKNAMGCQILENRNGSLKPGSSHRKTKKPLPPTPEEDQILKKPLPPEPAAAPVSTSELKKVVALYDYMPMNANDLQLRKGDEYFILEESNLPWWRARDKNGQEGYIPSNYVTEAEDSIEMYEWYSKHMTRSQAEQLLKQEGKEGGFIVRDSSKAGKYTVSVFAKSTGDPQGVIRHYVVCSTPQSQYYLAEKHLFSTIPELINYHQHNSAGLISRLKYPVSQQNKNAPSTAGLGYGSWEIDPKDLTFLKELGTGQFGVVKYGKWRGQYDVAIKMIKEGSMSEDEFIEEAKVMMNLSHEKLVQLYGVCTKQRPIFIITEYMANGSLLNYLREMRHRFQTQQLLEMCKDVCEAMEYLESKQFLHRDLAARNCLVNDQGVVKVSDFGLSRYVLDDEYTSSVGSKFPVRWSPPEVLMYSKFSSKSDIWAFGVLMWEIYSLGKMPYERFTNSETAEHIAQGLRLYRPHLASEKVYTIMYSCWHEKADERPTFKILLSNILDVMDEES
UniProt Q06187, 2-659 T474M limits assumed: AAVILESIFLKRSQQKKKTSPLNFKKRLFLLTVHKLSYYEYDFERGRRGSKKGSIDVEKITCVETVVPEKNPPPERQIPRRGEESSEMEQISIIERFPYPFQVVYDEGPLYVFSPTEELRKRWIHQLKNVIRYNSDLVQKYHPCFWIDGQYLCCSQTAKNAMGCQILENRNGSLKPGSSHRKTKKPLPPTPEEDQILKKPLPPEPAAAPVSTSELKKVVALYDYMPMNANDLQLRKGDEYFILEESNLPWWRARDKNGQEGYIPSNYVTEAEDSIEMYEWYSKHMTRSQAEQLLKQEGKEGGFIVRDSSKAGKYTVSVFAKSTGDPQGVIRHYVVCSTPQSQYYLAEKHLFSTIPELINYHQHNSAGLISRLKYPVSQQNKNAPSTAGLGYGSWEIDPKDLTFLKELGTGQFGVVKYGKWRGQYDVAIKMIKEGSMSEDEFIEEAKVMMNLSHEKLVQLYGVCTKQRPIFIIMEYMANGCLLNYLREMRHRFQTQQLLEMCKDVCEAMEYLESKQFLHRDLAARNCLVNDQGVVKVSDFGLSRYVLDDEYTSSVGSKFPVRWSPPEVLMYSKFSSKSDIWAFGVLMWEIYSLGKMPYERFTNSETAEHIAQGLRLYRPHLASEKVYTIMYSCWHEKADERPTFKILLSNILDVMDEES
UniProt Q06187, 2-659 T474I limits assumed: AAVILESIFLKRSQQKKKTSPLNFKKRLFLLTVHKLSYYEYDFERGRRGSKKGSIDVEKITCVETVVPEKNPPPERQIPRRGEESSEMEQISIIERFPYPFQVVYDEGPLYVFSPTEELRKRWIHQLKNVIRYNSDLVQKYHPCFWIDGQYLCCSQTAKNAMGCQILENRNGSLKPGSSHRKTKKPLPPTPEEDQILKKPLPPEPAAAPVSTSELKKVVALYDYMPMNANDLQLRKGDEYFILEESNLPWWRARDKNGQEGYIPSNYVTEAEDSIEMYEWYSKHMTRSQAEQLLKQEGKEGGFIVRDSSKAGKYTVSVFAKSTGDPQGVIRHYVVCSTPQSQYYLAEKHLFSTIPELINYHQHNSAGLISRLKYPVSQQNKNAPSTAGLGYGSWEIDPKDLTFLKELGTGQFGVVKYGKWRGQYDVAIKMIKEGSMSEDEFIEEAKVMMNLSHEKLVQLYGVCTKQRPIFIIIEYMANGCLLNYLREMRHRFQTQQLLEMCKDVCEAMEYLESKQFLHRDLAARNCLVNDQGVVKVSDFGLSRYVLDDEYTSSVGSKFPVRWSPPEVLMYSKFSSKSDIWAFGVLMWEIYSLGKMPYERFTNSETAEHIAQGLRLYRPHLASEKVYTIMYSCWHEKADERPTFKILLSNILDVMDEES

Holding throughout (assay type): cell-based
Assay [1] addresses Tyrosine-protein kinase BTK (Homo sapiens, UniProt Q06187, C481S). Description: Inhibition of BTK C481S mutant (unknown origin) expressed in HEK293 cells.
The target of assay [2] is Tyrosine-protein kinase BTK (Homo sapiens, UniProt Q06187, T474M). Kind of assay: Inhibition of BTK T474M mutant (unknown origin) expressed in HEK293 cells.
Assay [3] concerns the target Tyrosine-protein kinase BTK (Homo sapiens, UniProt Q06187, T474I). Description: Inhibition of BTK T474I mutant (unknown origin) expressed in HEK293 cells.

In the case of `C[C@H]1CN(C2COC2)CCN1c1ccc(Nc2cc(-c3ccnc(N4CCn5c(cc6c5CC(C)(C)C6)C4=O)c3CO)cn(C)c2=O)nc1` [FENEBRUTINIB], the Ki – broadly, the equilibrium dissociation constant of an inhibitor or competing ligand from its target – in assay [1] was 1.6 nM; in assay [2], 3.4 nM; in assay [3] it was 12.6 nM.
